The source of these data is patent US20260166170A1, “ANTIBODY DRUG CONJUGATE COMPRISING NMT INHIBITOR AND ITS USE” (MyricX Pharma Limited, priority 2022, published 2026).

A word on the IC50: it is the midpoint of a concentration-inhibition curve.

Type in all cases: cell-based
The test system of experiment [1] is HER2 negative breast cancer cell line, MCF7. In words: In vitro cytotoxicity, IncuCyte Sytox Green. The conditions noted are these: concentration up to 50 nM; imaged for ten days. On the procedure: Cells were plated in 96 well plates at 10% confluency (2000 for MCF7). […] Plates were imaged every four hours for ten days in the IncuCyte S3. Images for % phase (confluence) and green (Sytox Green) were collected and analysed using the IncuCyte software 2022A. Data are presented as green area normalised to phase area (μm^2) over time whilst cells are in log phase proliferation.
(§1) Trastuzumab was conjugated to NMT inhibitor 1 (ADC Example 8) and tested for its cytotoxic activity against a HER2 negative breast cancer cell line, MCF7 in an in vitro assay. Cells were plated in 96 well plates at 10% confluency (2000 for MCF7). The following day cells were treated with ADC Example 8 at 50 nM, 3.13 nM, and 0.2 nM and controls in 250 nM Sytox Green containing medium. Plates were imaged every four hours for ten days in the IncuCyte S3. Images for % phase (confluence) and green (Sytox Green) were collected and analysed using the IncuCyte software 2022A. Data are presented as green area normalised to phase area (μm^2) over time whilst cells are in log phase proliferation.

The test system of experiment [2] is gastric cancer organoid GA0091B. In words: Gastric cancer organoid CTG viability assay. More on the design: AUC (area under curve): unit not given beside the values. The conditions noted are these: 5 or 6 days; for IC50: absolute IC50. Here is the method: (§2) • Day−1: Patient derived gastric cancer organoids (PDXOs) are sheared to uniform sizes and the required number of organoids are combined 1:1 with 50% Matrigel to produce the right size of the organoids to perform the screen. • Day 0: Organoid seeding • 1. Collect organoids from each well by adding 20 μl 100× Dispase solution to each well from a 6-well plate, which contains 2 ml of organoid medium. • 2. Put the plates back in the incubator, 37° C. for 30 min. • 3. Collect organoids from all wells and pipet through a pre-wet 100 μm filter into a 50 ml plastic tube. • 4. Once all wells have been filtered over 100 μm filters, filter the flow though over a pre-wet 20 μm filter. • 5. Invert the 20 μm filter and recover the organoids in a new 50 ml tube. • 6. Collect and resuspend the organoids in the corresponding culture media. Count the organoids to get the concentration. • 7. Adjust cell concentration with culture medium to the proper concentration. • 8. Add Matrigel to a final concentration of 5% v/v and keep the organoids suspension on ice. • 9. Add 40 μL cell suspensions to 384-well plate by Multidrop dispenser with corresponding culture medium at the below seeding density:
(§3) • 10. Place screening plates back into the incubator before adding compounds and day 0 reading. Two duplicate plates were set up. One is for day 0 reading (TO) and the other for reading at the end point. • Day 0: Compounds treatment and Day 0 baseline CTG (cell titre glo) reading • 11. Add test articles according to the drug dilution scheme and plate map by Tecan D300e • 12. Place screening plates back into the incubator. • 13. For day 0 reading plate, add 40 μL of CTG 3D per well and read luminescent signal on Envision plate reader. • Day 6: Endpoint CTG reading. • 1. Read assay plates for luminescent CTG signal at the end of the assays: add 40 μL of CTG 3D per well by Multidrop dispenser, mix the contents for 5 min on the plate shaker, and incubate the plates for 30 min at room temperature in dark. Read luminescent signal on Envision plate reader.
(§4) In order to calculate absolute IC50, a concentration-response curve was fitted using nonlinear regression model with a sigmoidal dose response with variable slope. The formula for calculating surviving rate is shown below and the absolute IC50 were calculated according to the dose-response curve generated by GraphPad Prism.

The subject of experiment [3] is gastric cancer organoid GA6866B. Put plainly: Gastric cancer organoid CTG viability assay. Details: AUC (area under curve): unit not given beside the values. Conditions: 5 or 6 days; for IC50: absolute IC50. On the procedure: as §2, §3, §4
The subject of experiment [4] is gastric cancer organoid GA6877B. In words: Gastric cancer organoid CTG viability assay. More on the design: AUC (area under curve): unit not given beside the values. The conditions noted are these: 5 or 6 days; for IC50: absolute IC50. On the procedure:
as §2, §3, §4

For experiment [5], the system named is gastric cancer organoid GA0087B. Put plainly: Gastric cancer organoid CTG viability assay. More on the design: AUC (area under curve): unit not given beside the values. The conditions noted are these: 5 or 6 days; for IC50: absolute IC50. Here is the method:
as §2, §3, §4

The test system of experiment [6] is gastric cancer organoid GA0060B. Put plainly: Gastric cancer organoid CTG viability assay. More on the design: AUC (area under curve): unit not given beside the values. Conditions: 5 or 6 days; for IC50: absolute IC50. Here is the method: as §2, §3, §4
Experiment [7] concerns gastric cancer organoid GA3102B. Put plainly: Gastric cancer organoid CTG viability assay. More on the design: AUC (area under curve): unit not given beside the values. The conditions noted are these: 5 or 6 days; for IC50: absolute IC50. On the procedure: as §2, §3, §4
The test system of experiment [8] is gastric cancer organoid GA0119B. In words: Gastric cancer organoid CTG viability assay. More on the design: AUC (area under curve): unit not given beside the values. Conditions: 5 or 6 days; for IC50: absolute IC50. On the procedure: as §2, §3, §4
Experiment [9] has as its system HER2 positive breast cancer cell line, BT474. In words: In vitro cytotoxicity, IncuCyte Sytox Green. Conditions: 50 nM, 3.3 nM, 0.2 nM; imaged for ten days. Here is the method:
Cells were plated in 96 well plates at 10% confluency (8000 for BT474). […] Plates were imaged every four hours for ten days in the IncuCyte S3. Images for % phase (confluence) and green (Sytox Green) were collected and analysed using the IncuCyte software 2022A. Data are presented as green area normalised to phase area (μm^2) over time whilst cells are in log phase proliferation.
as §1, with “positive” for “negative”, “BT474” for “MCF7”, “(8000” for “(2000”, “BT474).” for “MCF7).”

In experiment [10] the test system is eGFP+MCF7 cells co-cultured with HER2 positive BT474 cells. Put plainly: In vitro bystander effect, co-culture with BT474. Conditions: 0.05-12.5 nM, Day 9. Here is the method: HER2 negative MCF7 cells were stably transduced with pHIV eGFP (Addgene plasmid 21373) and sorted by flow cytometry to obtain a cell population that was 100% GFP positive (Green Fluorescent Protein). After two passages, eGFP positive MCF7 cells were plated in a 1:1 ratio with Wild Type MCF7 cells (1000 cells each) or with HER2 positive BT474 cells in 96 well plates. […] Cells were imaged every four hours for ten days in the IncuCyte S3. Images for % green (eGFP+MCF7) were collected and analysed using the IncuCyte software 2022A. Data are presented as % green area (μm^2) as a measure of eGFP+MCF7 confluence on Day 9.

As to trastuzumab deruxtecan, the “cell killing of HER2 negative MCF7 cells” value in experiment [1] was “unable to induce cell killing”. In addition, the “AUC (area under curve)” value was determined as 459.8 in experiment [2]; 192.9042 in experiment [3]; 196.3687 in experiment [4]; 330.3 in experiment [5]; 330.4667 in experiment [6]; 215.0035 in [7]. In addition, the “AUC (area under curve)” value in [8] came to 364.6999. Also, the “Max_Inhibition (%)” value is −4.07% in experiment [2]; 85.3% in experiment [3]; 80.47% in [4]; 42.94% in experiment [5]; 36.69% in experiment [6]; 90.24% in experiment [7]. In addition, in [8], the “Max_Inhibition (%)” value is on record as 26.83%. Also, the IC50 in [2] is above 50 nM; in experiment [3] it was 0.4 nM; in experiment [4] it was 0.4 nM; in experiment [5], above 50 nM; in experiment [6] it was above 50 nM; in experiment [7], 0.7 nM. Also, in experiment [8], the IC50 is above 50 nM. The “cell killing of BT474 cells” value in experiment [9] is on record as “effectively killed BT474 cells but was less efficacious than ADC Example 1”. The “bystander killing of eGFP+MCF7 cells” value in [10] is recorded as “least effective”.
Turning to “trastuzumab: humanized anti-HER2 monoclonal antibody”, the “cell killing of HER2 negative MCF7 cells” value in experiment [1] is on record as “unable to induce cell killing”. Besides, the “AUC (area under curve)” value in [2] came to 402.9; in [3] it was 304.9903; in experiment [4] it was 328.7294; in [5], 447.7; in experiment [6] it was 348.9219; in experiment [7], 362.8386. Further, the “AUC (area under curve)” value in [8] came out at 382.5737. The “Max_Inhibition (%)” value was 17.54% in [2]; 62.62% in experiment [3]; 40.47% in [4]; 35.31% in experiment [5]; 34.19% in experiment [6]; 13.75% in [7]. For the same substance, the “Max_Inhibition (%)” value in experiment [8] is reported as 12.83%. For the same substance, the IC50 is above 50 nM in experiment [2]; 7.3 nM in [3]; above 50 nM in [4]; above 50 nM in experiment [5]; above 50 nM in experiment [6]; above 50 nM in experiment [7]. Further, in experiment [8], the IC50 was above 50 nM. For the same substance, the “cell killing of BT474 cells” value in [9] is recorded as “ineffective at killing BT474 cells”. The “bystander killing of eGFP+MCF7 cells” value in experiment [10] is given as “neither induced any bystander killing”.
